Values quoted from earlier work in article PMC4628734.

Amino acid sequences for entries named in this document (tags omitted). A change or cut given only in a name is not applied to a line headed by its entry. Residues count along the entry.
UniProt Q71F23: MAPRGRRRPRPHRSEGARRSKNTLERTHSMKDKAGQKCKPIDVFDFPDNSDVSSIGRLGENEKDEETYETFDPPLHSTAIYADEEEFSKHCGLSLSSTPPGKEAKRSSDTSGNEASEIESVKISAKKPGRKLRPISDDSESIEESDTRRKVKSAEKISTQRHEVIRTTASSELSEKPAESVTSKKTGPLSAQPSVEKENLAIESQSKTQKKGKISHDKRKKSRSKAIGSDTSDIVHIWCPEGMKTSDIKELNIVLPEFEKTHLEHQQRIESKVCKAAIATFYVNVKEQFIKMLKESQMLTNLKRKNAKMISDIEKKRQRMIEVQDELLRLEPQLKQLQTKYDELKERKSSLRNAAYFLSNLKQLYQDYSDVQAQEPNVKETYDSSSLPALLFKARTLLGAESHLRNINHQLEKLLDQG
UniProt P53350, 367-603: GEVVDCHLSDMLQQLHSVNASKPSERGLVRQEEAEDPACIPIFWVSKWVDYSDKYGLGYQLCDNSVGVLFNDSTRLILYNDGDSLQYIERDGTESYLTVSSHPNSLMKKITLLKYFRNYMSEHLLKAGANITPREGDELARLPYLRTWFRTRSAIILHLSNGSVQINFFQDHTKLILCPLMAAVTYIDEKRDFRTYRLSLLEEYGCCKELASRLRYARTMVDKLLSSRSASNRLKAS

Molecular target: PBIP1 (Homo sapiens) (UniProt Q71F23)

PLK-1 PBD (from UniProt P53350)
Kd: 445 nM
